Results from ChEMBL document CHEMBL1146777, “Interaction with the S1 beta-pocket of urokinase: 8-heterocycle substituted and 6,8-disubstituted 2-naphthamidine urokinase inhibitors” (Bioorg Med Chem Lett, 2004).

What follows are molecules tested against Urokinase-type plasminogen activator (Homo sapiens, UniProt P00749).
In the case of `COc1ccc2ccc(C(=N)N)cc2c1-c1cnn(S(C)(=O)=O)c1`, the Ki is reported as 630 nM.
In the case of `COc1ccc2ccc(C(=N)N)cc2c1C1CCOC1` (stereo not given), the Ki is reported as 530 nM.
`COc1ccc2ccc(C(=N)N)cc2c1-c1ccco1` showed a Ki of 2100 nM.
For `CCS(=O)(=O)c1cc(-c2cc(C(=O)Nc3ccccc3)cc3ccc(C(=N)N)cc23)co1`, the Ki was 18 nM.
`CC(C)Oc1cccc(NC(=O)c2cc(C3CCOC3)c3cc(C(=N)N)ccc3c2)c1` (stereo not given) was tested, and the Ki was 8.5 nM.
